In ChEMBL document CHEMBL1765012, “Novel interactions of fluorinated nucleotide derivatives targeting orotidine 5'-monophosphate decarboxylase” (J Med Chem, 2011) one finds Kinact data, which are given here for 2 compounds.

The chains behind the UniProt entries cited, without tags or fusion partners. Where a name states a change or a piece, a line headed by the entry shows the natural chain unless it says otherwise.
UniProt O26232: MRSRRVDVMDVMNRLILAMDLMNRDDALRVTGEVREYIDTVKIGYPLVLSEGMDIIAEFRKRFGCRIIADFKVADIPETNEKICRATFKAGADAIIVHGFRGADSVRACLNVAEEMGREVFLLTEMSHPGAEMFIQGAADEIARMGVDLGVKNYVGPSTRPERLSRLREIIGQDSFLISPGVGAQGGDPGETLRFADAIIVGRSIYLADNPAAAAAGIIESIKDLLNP

The target in the experiment is Orotidine 5'-phosphate decarboxylase (Methanobacterium thermoautotrophicum) (UniProt O26232). The settings on record: Methanothermobacter thermautotrophicus.

`[N-]=[N+]=Nc1cn([C@@H]2O[C@H](CP(=O)(O)O)[C@@H](O)[C@H]2O)c(=O)[nH]c1=O` returned a Kinact of 612 h⁻¹. Compound `[N-]=[N+]=Nc1cc(=O)[nH]c(=O)n1[C@@H]1O[C@H](CP(=O)(O)O)[C@@H](O)[C@H]1O` registered a Kinact of 4 h⁻¹.
